Series [1] concerns APOE∗3-Leiden.CETP mice. Kind of series: First efficacy study: body weight, food intake, plasma AST and ALT. The format is in vivo, mouse. Also noted: unit not given here. From the text: (§1) Animal experiments were approved by the governmental central committee on animal experiments (AVD5010020172064) and TNO’s animal welfare body (TNO-471 and TNO-482). Female APOE∗3-Leiden.CETP transgenic mice (11–16 weeks of age) were bred at the animal facility of TNO-InnoSer (Leiden, The Netherlands). Female animals were used in this study as they are more responsive to dietary cholesterol and fat than males and therefore typically develop atherosclerosis more rapidly than male APOE∗3-Leiden and APOE∗3-Leiden.CETP mice on cholesterol-containing diets ([33], [34]). Although measurements of atherosclerosis were not included as part of the present study, females were used with the prospect in mind that atherosclerosis studies will follow. The mice were housed under standard conditions that included 12 h light-dark cycles and access to a WTD and sterilized tap water ad libitum. Body weight, food intake, and clinical signs of behavior were monitored throughout the studies. […]
In the first efficacy study, mice were divided into three groups of eight to determine whether there was a dose-dependent cholesterol-lowering effect with NYX-PCSK9i treatment. […] Throughout the in-life phase of the study, body weight and food intake (per cage) were measured at regular predetermined intervals while blood samples were collected every 7 days. […] Throughout the study, plasma cholesterol, triglycerides, HDL-C, lipoprotein profiles, PCSK9 expression levels, aspartate transaminase levels (AST), and alanine transaminase levels (ALT) were measured as described below.
(§2) In both studies, blood samples were collected at weekly intervals via tail vein sampling after fasting the mice for 4 h. […] Total plasma cholesterol levels were determined using a Cholesterol CHOD-PAP kit according to the manufacturer’s instructions. Plasma HDL-C levels were determined by first precipitating apoB-containing lipids using PEG 6000/glycine and then utilizing the Cholesterol CHOD-PAP kit ([35]). Non-HDL-C levels were determined by subtracting HDL-C levels from total cholesterol levels ([32]). […]

Series [2] relates to APOE∗3-Leiden.CETP mice. Kind of series: Second efficacy study: body weight, food intake, plasma ALT and AST. The note with it: NYX-PCSK9i 50 mg/kg BID PO, atorvastatin 4.9 mg/kg/day. The format is in vivo, mouse. Also noted: unit not given here.
Source text: as §1, with “Although measurements of atherosclerosis were not included as part of the present study, females were used with the prospect in mind that atherosclerosis studies will follow. The mice were housed under standard conditions that included 12 h light-dark cycles and access to a WTD and sterilized tap water ad libitum.” left out
as §2, with “([32]). Group-pooled lipoprotein profiles were determined by FPLC analysis using an AKTApurifier 10 FPLC system (GE Healthcare, Chicago, IL).” for “([32]).”

One compound from article PMC9646673, “A Novel, Orally Bioavailable, Small-Molecule Inhibitor of PCSK9 With Significant Cholesterol-Lowering Properties In Vivo” (Journal of Lipid Research, 2022) can be followed below.

Take `Cc1cn(-c2cc(CN3CCC[C@H](N)C3)cc(NC(=O)c3cc(-c4ccccc4)ccn3)c2)cn1` [NYX-PCSK9i]: the “Body weight (mean ± SD)” value in the series with APOE∗3-Leiden.CETP mice [1] (30 mg/kg BID PO, day 14) is 22.3 ± 1.7; with APOE∗3-Leiden.CETP mice [1] (30 mg/kg BID PO, day 21), 22.2 ± 1.2; in the series on APOE∗3-Leiden.CETP mice [1] (50 mg/kg BID PO, day 0 (baseline)), 22.2 ± 1.6; with APOE∗3-Leiden.CETP mice [2] (day 7), 22.8 ± 2.0; in the series with APOE∗3-Leiden.CETP mice [2] (day 35), 22.1 ± 1.9.
